Target: T1, Farnesoid X receptor (FXR) (Homo sapiens, UniProt Q96RI1)
T1 sequence (Q96RI1 1-476 isoform Q96RI1-1): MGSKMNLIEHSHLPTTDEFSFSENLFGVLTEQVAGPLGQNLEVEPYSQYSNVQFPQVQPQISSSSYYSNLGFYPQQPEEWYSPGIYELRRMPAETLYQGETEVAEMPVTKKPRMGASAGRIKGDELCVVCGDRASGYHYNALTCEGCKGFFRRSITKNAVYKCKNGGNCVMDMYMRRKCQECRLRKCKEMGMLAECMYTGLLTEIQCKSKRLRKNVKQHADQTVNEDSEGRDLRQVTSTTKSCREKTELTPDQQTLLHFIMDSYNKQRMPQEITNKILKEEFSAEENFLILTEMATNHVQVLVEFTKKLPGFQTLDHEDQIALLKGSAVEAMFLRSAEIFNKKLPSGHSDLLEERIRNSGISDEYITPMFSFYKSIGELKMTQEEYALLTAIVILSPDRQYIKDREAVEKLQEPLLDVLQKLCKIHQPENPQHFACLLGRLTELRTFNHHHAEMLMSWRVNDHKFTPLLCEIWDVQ
Settings: organoids, 10 μM, 72 hours

By UniProt entry, the sequences of proteins in these tests, tags left out. Where a name states a change or a piece, a line headed by the entry shows the natural chain unless it says otherwise.
UniProt Q96RI1: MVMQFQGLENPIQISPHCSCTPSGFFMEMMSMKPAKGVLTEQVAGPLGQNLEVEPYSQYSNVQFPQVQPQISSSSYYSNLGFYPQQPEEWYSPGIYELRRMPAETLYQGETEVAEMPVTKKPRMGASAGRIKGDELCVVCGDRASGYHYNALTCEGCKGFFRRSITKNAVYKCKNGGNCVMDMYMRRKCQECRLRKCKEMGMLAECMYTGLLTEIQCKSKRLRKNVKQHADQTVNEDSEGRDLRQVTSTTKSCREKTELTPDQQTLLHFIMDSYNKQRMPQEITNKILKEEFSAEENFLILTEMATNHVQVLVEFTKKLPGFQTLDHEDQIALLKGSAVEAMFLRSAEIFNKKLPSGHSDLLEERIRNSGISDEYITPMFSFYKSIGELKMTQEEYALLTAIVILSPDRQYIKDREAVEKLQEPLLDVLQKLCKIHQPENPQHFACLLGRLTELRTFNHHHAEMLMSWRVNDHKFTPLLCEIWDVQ

C/C=C1\C(=O)C[C@H]2[C@@H]3CCC4=CC(=O)CC[C@]4(C)[C@H]3CC[C@]12C [z-22 guggulsterone, Z-guggulsterone]
effect on the Farnesoid X receptor (FXR): inhibition of the Farnesoid X receptor (FXR)

From patent US20250327033A1, “Methods of Expanding Cholangiocytes” (priority 2021, published 2025)
